The target in this experiment is T1, human noradrenaline transporter (hNET) (Homo sapiens, UniProt P23975).
T1 construct: expressed in transfected cells; host or cells: COS-7 cells (ATCC), transient transfection with metafectene
The experiment is described as follows: biochemical. The following applies: Av IC50 Displacement of 3H-nisoxetine from hNET. The format is binding.

The chains behind the UniProt entries cited, without tags or fusion partners.
UniProt P23975, whole entry: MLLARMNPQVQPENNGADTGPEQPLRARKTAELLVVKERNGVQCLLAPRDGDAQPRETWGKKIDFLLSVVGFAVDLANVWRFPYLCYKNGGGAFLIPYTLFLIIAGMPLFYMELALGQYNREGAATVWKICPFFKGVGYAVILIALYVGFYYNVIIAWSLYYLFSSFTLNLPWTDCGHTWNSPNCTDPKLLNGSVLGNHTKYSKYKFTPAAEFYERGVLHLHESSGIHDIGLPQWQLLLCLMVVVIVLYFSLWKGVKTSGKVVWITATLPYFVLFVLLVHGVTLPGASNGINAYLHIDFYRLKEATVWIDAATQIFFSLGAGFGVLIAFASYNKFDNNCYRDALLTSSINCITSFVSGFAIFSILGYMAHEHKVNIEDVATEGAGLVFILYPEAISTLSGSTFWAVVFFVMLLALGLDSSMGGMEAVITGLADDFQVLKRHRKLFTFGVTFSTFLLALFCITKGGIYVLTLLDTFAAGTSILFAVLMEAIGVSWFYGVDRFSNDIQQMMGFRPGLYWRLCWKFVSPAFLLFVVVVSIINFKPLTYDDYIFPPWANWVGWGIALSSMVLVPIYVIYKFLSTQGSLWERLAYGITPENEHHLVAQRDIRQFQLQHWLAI

In turn, `CC(C)C[C@@H]1NC(=O)[C@H](CCCCN)NC(=O)[C@H](Cc2ccc(O)cc2)NC(=O)CNC(=O)[C@@H]2CSSC[C@H](NC1=O)C(=O)N[C@@H](Cc1c[nH]cn1)C(=O)N1CCC[C@H]1C(=O)N[C@H](C(N)=O)CSSC[C@H](NC(=O)[C@@H](NC(=O)CNC(=O)[C@H](CC(N)=O)NC(=O)c1ccccc1)C(C)C)C(=O)N2` [compound 120] had an IC50 of 1230 nM. As for `CCCC[C@H](NC(=O)CNC(=O)C[C@@H](N)CCCCN)C(=O)N[C@H]1CSSC[C@@H](C(N)=O)NC(=O)[C@@H]2CCCN2C(=O)[C@H](Cc2c[nH]cn2)NC(=O)[C@@H]2CSSC[C@H](NC1=O)C(=O)NCC(=O)N[C@@H](Cc1ccc(O)cc1)C(=O)N[C@@H](CCCCN)C(=O)N[C@@H](CC(C)C)C(=O)N2` [compound 73], the figure is 251 nM; as for `CC(C)CC[C@@H]1NC(=O)[C@H](CCCCN)NC(=O)[C@H](Cc2ccc(O)cc2)NC(=O)CNC(=O)[C@@H]2CSSC[C@H](NC1=O)C(=O)N[C@@H](Cc1c[nH]cn1)C(=O)N1C[C@H](O)C[C@H]1C(=O)N[C@H](C(N)=O)CSSC[C@H](NC(=O)[C@@H](NC(=O)CNC(=O)C[C@@H](N)CCCCN)C(C)C)C(=O)N2` [compound 49], 135 nM; as for `COc1ccc(C[C@@H]2NC(=O)CNC(=O)[C@@H]3CSSC[C@H](NC(=O)[C@H](CC(C)C)NC(=O)[C@H](CCCCN)NC2=O)C(=O)N[C@@H](CCCNC(=N)N)C(=O)N2C[C@H](O)C[C@H]2C(=O)N[C@H](C(N)=O)CSSC[C@H](NC(=O)[C@H](CC(C)C)NC(=O)CNC(=O)[C@H](CCCNC(=N)N)NC(=O)[C@H](Cc2ccc(O)cc2)NC(C)=O)C(=O)N3)cc1` [compound 34], 89.1 nM. `COc1ccc(C[C@@H]2NC(=O)CNC(=O)[C@@H]3CSSC[C@H](NC(=O)[C@H](CC(C)C)NC(=O)[C@H](CCCCN)NC2=O)C(=O)N[C@@H](Cc2c[nH]cn2)C(=O)N2C[C@H](O)C[C@H]2C(=O)N[C@H](C(N)=O)CSSC[C@H](NC(=O)[C@@H](NC(=O)CNC(=O)[C@H](CC(N)=O)NC(=O)[C@@H](N)Cc2c[nH]c4ccccc24)C(C)C)C(=O)N3)cc1` [compound 46]: the IC50 was 132 nM.

For the compound `CC(C)C[C@@H]1NC(=O)[C@H](CCCCN)NC(=O)[C@H](Cc2ccc(O)cc2)NC(=O)CNC(=O)[C@@H]2CSSC[C@H](NC1=O)C(=O)N[C@@H](Cc1c[nH]cn1)C(=O)N1C[C@H](O)C[C@H]1C(=O)N[C@H](C(N)=O)CSSC[C@H](NC(=O)[C@@H](NC(=O)CNC(=O)C[C@H](CCCCN)NC(=O)[C@@H](N)Cc1c[nH]c3ccccc13)C(C)C)C(=O)N2` [compound 95], the IC50 was 437 nM. As for `COc1ccc(C[C@@H]2NC(=O)CNC(=O)[C@@H]3CSSC[C@H](NC(=O)[C@H](CC(C)C)NC(=O)[C@H](CCCCN)NC2=O)C(=O)N[C@@H](CCCNC(=N)N)C(=O)N[C@@H](C)C(=O)N[C@H](C(N)=O)CSSC[C@H](NC(=O)[C@@H](NC(=O)CNC(=O)[C@H](CC(N)=O)NC(=O)[C@@H](N)Cc2ccc(O)cc2)C(C)C)C(=O)N3)cc1` [compound 62], the figure is 182 nM; as for `CC(C)C[C@@H]1NC(=O)[C@H](CCCCN)NC(=O)[C@H](Cc2ccc(O)cc2)NC(=O)CNC(=O)[C@@H]2CSSC[C@H](NC1=O)C(=O)N[C@@H](Cc1c[nH]cn1)C(=O)N1Cc3ccccc3C[C@H]1C(=O)N[C@H](C(N)=O)CSSC[C@H](NC(=O)[C@@H](NC(=O)CNC(=O)[C@@H](N)CC(N)=O)C(C)C)C(=O)N2` [compound 102], 708 nM.

In turn, `CCCC[C@H](NC(=O)[C@H](CC(N)=O)NC(=O)[C@@H](N)Cc1ccc(O)cc1)C(=O)N[C@H](C(=O)N[C@H]1CSSC[C@@H](C(N)=O)NC(=O)[C@@H]2CCCN2C(=O)[C@H](Cc2c[nH]cn2)NC(=O)[C@@H]2CSSC[C@H](NC1=O)C(=O)NCC(=O)N[C@@H](Cc1ccc(O)cc1)C(=O)N[C@@H](CCCCN)C(=O)N[C@@H](CC(C)C)C(=O)N2)C(C)C` [compound 132] had a 50% inhibitory concentration (IC50) of 1820 nM.

As to `CC(C)C[C@@H]1NC(=O)[C@H](CCCCN)NC(=O)[C@H](Cc2ccc(O)cc2)NC(=O)CNC(=O)[C@@H]2CSSC[C@H](NC1=O)C(=O)N[C@@H](Cc1c[nH]cn1)C(=O)N1C[C@H](O)C[C@H]1C(=O)N[C@H](C(N)=O)CSSC[C@H](NC(=O)[C@@H](NC(=O)CNC(=O)[C@H](CC(N)=O)NC(=O)[C@H](C)NC(=O)[C@@H](N)Cc1c[nH]c3ccccc13)C(C)C)C(=O)N2` [compound 106], the IC50 is 813 nM. With `COc1ccc(C[C@@H]2NC(=O)CNC(=O)[C@@H]3CSSC[C@H](NC(=O)[C@H](CC(C)C)NC(=O)[C@H](CCCCN)NC2=O)C(=O)N[C@@H](Cc2c[nH]cn2)C(=O)N2C[C@H](O)C[C@H]2C(=O)N[C@H](C(N)=O)CSSC[C@H](NC(=O)[C@@H](NC(=O)CNC(=O)[C@H](CCCNC(=N)N)NC(=O)[C@@H](N)Cc2c[nH]c4ccccc24)C(C)C)C(=O)N3)cc1` [compound 25], the IC50 was 47.9 nM. As for `CC(C)C[C@@H]1NC(=O)[C@H](CCCCN)NC(=O)[C@H](Cc2ccc(O)cc2)NC(=O)CNC(=O)[C@@H]2CSSC[C@H](NC1=O)C(=O)N[C@@H](Cc1c[nH]cn1)C(=O)N1CCC[C@H]1C(=O)N[C@H](C(N)=O)CSSC[C@H](NC(=O)[C@@H](NC(=O)CNC(=O)[C@@H](N)CCCN)C(C)C)C(=O)N2` [compound 108], the figure is 871 nM; as for `CC(C)C[C@@H]1NC(=O)[C@H](CCCCN)NC(=O)[C@H](Cc2ccc(O)cc2)NC(=O)CNC(=O)[C@@H]2CSSC[C@H](NC1=O)C(=O)N[C@@H](Cc1c[nH]cn1)C(=O)N1C[C@H](O)C[C@H]1C(=O)N[C@H](C(N)=O)CSSC[C@H](NC(=O)[C@@H](NC(=O)CNC(=O)[C@H](CCCNC(=N)N)NC(=O)[C@@H](N)Cc1c[nH]c3ccccc13)C(C)C)C(=O)N2` [compound 30], 85.1 nM. `CC(C)C[C@@H]1NC(=O)[C@H](CCCCN)NC(=O)[C@H](Cc2c[nH]c3ccccc23)NC(=O)CNC(=O)[C@@H]2CSSC[C@H](NC1=O)C(=O)N[C@@H](Cc1c[nH]cn1)C(=O)N1C[C@H](O)C[C@H]1C(=O)N[C@H](C(N)=O)CSSC[C@H](NC(=O)[C@@H](NC(=O)CNC(=O)[C@@H]1CCC(=O)N1)C(C)C)C(=O)N2` [compound 187] had an IC50 of 91200 nM. Take `CC(C)C[C@@H]1NC(=O)[C@H](CCCCN)NC(=O)[C@H](CCC(=O)O)NC(=O)CNC(=O)[C@@H]2CSSC[C@H](NC1=O)C(=O)N[C@@H](Cc1c[nH]cn1)C(=O)N1C[C@H](O)C[C@H]1C(=O)N[C@H](C(N)=O)CSSC[C@H](NC(=O)[C@@H](NC(=O)CNC(=O)[C@@H]1CCC(=O)N1)C(C)C)C(=O)N2` [compound 197]: the IC50 is 191000 nM. As for `COc1ccc(C[C@@H]2NC(=O)CNC(=O)[C@@H]3CSSC[C@H](NC(=O)[C@H](CC(C)C)NC(=O)[C@H](CCCCN)NC2=O)C(=O)N[C@@H](CCCNC(=N)N)C(=O)N[C@@H](C)C(=O)N[C@H](C(N)=O)CSSC[C@H](NC(=O)[C@H](CC(C)C)NC(=O)CNC(=O)[C@H](CCCNC(=N)N)NC(=O)[C@@H](N)Cc2c[nH]c4ccccc24)C(=O)N3)cc1` [compound 37], the figure is 100 nM. The compound `CCCC[C@H](NC(=O)CNC(=O)[C@H](CC(N)=O)NC(=O)[C@@H](N)Cc1ccc(O)cc1)C(=O)N[C@H]1CSSC[C@@H](C(N)=O)NC(=O)[C@@H]2CCCN2C(=O)[C@H](Cc2c[nH]cn2)NC(=O)[C@@H]2CSSC[C@H](NC1=O)C(=O)NCC(=O)N[C@@H](Cc1ccc(O)cc1)C(=O)N[C@@H](CCCCN)C(=O)N[C@@H](CC(C)C)C(=O)N2` [compound 50] had an IC50 of 138 nM. Compound `CC(C)C[C@@H]1NC(=O)[C@H](CCCNC(=N)N)NC(=O)[C@H](Cc2ccc(O)cc2)NC(=O)CNC(=O)[C@@H]2CSSC[C@H](NC1=O)C(=O)N[C@@H](Cc1c[nH]cn1)C(=O)N1C[C@H](O)C[C@H]1C(=O)N[C@H](C(N)=O)CSSC[C@H](NC(=O)[C@@H](NC(=O)CNC(=O)[C@@H](N)CC(N)=O)C(C)C)C(=O)N2` [compound 177] showed an IC50 of 22900 nM. As for `COc1ccc(C[C@@H]2NC(=O)CNC(=O)[C@@H]3CSSC[C@H](NC(=O)[C@H](CC(C)C)NC(=O)[C@H](CCCCN)NC2=O)C(=O)N[C@@H](CCCNC(=N)N)C(=O)N[C@@H](C)C(=O)N[C@H](C(N)=O)CSSC[C@H](NC(=O)[C@@H](NC(=O)CNC(=O)[C@H](CCCNC(=N)N)NC(=O)[C@@H](N)Cc2c[nH]c4ccccc24)C(C)C)C(=O)N3)cc1` [compound 29], the figure is 74.1 nM. As for `CC(C)C[C@@H]1NC(=O)[C@H](CCCCN)NC(=O)[C@@H]2Cc3ccccc3CN2C(=O)CNC(=O)[C@@H]2CSSC[C@H](NC1=O)C(=O)N[C@@H](Cc1c[nH]cn1)C(=O)N1CCC[C@H]1C(=O)N[C@H](C(N)=O)CSSC[C@H](NC(=O)[C@@H](NC(=O)CNC(=O)[C@@H](N)CC(N)=O)C(C)C)C(=O)N2` [compound 191], the figure is 110000 nM; as for `COc1ccc(C[C@@H]2NC(=O)CNC(=O)[C@@H]3CSSC[C@H](NC(=O)[C@H](CC(C)C)NC(=O)[C@H](CCCCN)NC2=O)C(=O)N[C@@H](CCCNC(=N)N)C(=O)N[C@@H](C)C(=O)N[C@H](C(N)=O)CSSC[C@H](NC(=O)[C@H](CC(C)C)NC(=O)CNC(=O)[C@H](CCCNC(=N)N)NC(=O)[C@H](N)Cc2c[nH]c4ccccc24)C(=O)N3)cc1` [compound 24], 44.7 nM; as for `CC(C)C[C@@H]1NC(=O)[C@H](CCCCN)NC(=O)[C@H](Cc2ccc(O)cc2)NC(=O)CNC(=O)[C@@H]2CSSC[C@H](NC1=O)C(=O)N[C@@H](Cc1c[nH]cn1)C(=O)N1C[C@H](O)C[C@H]1C(=O)N[C@H](C(N)=O)CSSC[C@H](NC(=O)[C@@H](NC(=O)[C@H](C)NC(=O)[C@@H](N)CC(N)=O)C(C)C)C(=O)N2` [compound 124], 1350 nM. As for `COc1ccc(C[C@@H]2NC(=O)CNC(=O)[C@@H]3CSSC[C@H](NC(=O)[C@H](CC(C)C)NC(=O)[C@H](CCCCN)NC2=O)C(=O)N[C@@H](Cc2c[nH]cn2)C(=O)N[C@@H](C)C(=O)N[C@H](C(N)=O)CSSC[C@H](NC(=O)[C@@H](NC(=O)CNC(=O)[C@H](CCCNC(=N)N)NC(=O)[C@@H](N)Cc2c[nH]c4ccccc24)C(C)C)C(=O)N3)cc1` [compound 40], the IC50 was 105 nM. Regarding `CCCC[C@@H]1NC(=O)[C@H](Cc2c[nH]cn2)NC(=O)[C@@H]2CSSC[C@H](NC(=O)[C@@H](NC(=O)[C@@H](NC(=O)CNC(=O)[C@@H](N)CC(N)=O)C(C)C)CSSC[C@@H](C(N)=O)NC1=O)C(=O)NCC(=O)N[C@@H](Cc1ccc(O)cc1)C(=O)N[C@@H](CCCCN)C(=O)N[C@@H](CC(C)C)C(=O)N2` [compound 162], the concentration for half-maximal inhibition (IC50) is 6460 nM.

For the origin of these results see patent US7507717B2 (Xenome Ltd., priority 2002, dated 2009).
